The nature of the experiment: Figure 7f: response to FBS, CXCL12, opioid peptides and LIH383 relative to Medium. Type of experiment: cell-based. Conditions: Medium about 1; replicate 3.

As for CXCL12, the “Figure 7f value” stood at 1.165.
